Values quoted from earlier work, collected in patent US12421227B2, “Ribociclib salts and solid state forms thereof” (ASSIA CHEMICAL INDUSTRIES LTD., priority 2017, dated 2025).

Conditions: cited from earlier work

## Ribociclib succinate [form I of Ribociclib succinate]
After exposure to 95% RH
  solid form after exposure to humidity: didn't change
High humidity
  stability at high humidity: stable
